Patent US9527851B2, “Pyrrole six-membered heteroaryl ring derivative, preparation method thereof, and medicinal uses thereof” (Jiangsu Hengrui Medicine Co., Ltd., priority 2011, dated 2016)

By UniProt entry, the sequences of proteins in these tests, tags left out. Where a name states a change or a piece, a line headed by the entry shows the natural chain unless it says otherwise.
UniProt P23458: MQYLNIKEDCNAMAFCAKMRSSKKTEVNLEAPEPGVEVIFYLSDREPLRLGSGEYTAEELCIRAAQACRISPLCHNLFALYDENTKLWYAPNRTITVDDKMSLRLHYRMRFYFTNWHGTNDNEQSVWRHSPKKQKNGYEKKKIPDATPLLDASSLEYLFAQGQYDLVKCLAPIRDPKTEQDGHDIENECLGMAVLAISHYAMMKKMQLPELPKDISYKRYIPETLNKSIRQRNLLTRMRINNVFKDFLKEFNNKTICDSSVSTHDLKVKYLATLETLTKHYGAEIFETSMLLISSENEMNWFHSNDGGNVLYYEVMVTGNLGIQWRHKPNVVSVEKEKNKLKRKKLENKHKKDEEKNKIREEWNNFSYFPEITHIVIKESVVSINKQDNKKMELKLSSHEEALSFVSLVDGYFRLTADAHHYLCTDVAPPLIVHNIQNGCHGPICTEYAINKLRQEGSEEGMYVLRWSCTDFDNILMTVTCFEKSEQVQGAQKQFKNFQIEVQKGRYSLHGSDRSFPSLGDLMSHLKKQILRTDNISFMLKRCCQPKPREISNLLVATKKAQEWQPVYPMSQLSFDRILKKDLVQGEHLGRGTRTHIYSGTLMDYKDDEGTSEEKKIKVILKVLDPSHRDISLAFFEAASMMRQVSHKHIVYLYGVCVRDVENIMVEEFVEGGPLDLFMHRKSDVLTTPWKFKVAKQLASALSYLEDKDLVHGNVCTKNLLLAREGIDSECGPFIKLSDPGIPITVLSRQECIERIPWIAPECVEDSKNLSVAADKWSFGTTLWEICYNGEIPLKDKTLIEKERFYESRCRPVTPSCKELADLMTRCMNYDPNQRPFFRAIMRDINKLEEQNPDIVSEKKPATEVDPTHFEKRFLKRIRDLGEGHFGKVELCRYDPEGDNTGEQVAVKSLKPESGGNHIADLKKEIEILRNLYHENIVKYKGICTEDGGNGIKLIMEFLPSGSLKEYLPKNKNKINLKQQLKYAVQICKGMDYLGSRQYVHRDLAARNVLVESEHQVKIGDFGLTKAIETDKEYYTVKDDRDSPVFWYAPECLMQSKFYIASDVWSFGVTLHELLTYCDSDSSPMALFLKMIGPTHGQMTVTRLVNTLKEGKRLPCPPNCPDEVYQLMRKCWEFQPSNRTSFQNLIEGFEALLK

Molecular target: JAK1 kinase (Homo sapiens (Human), UniProt P23458)
Test: Assay for inhibiting JAK1 kinase (in vitro kinase assay, HRP anti-phosphotyrosine antibody/TMB absorbance)
Assay type: biochemical
Settings: 20 μM ATP, 50 minutes at room temperature; read-out: IC50 (JAK1/Bio)
Experimental: In vitro activity of compounds of the present invention for inhibiting JAK1 kinase was determined by the following method.
IC50 values of test compounds was calculated from the data of the test compounds in inhibiting the activity of JAK1 kinase at different concentrations.

Compound	IC50
Cc1nsc(N2C[C@H]3C[C@H](N(C)c4ncnc5[nH]ccc45)C[C@H]3C2)n1 [Example 65, N-methyl-N-((3aR,5S,6aS)-2-(3-methyl-1,2,4-thiadiazol-5-yl)octahydrocyclopenta[c]pyrrol-5-yl)-7H-pyrrolo[2,3-d]pyrimidin-4-amine]	50 nM
CN(c1ncnc2[nH]ccc12)[C@@H]1C[C@H]2CNC(=O)C[C@H]2C1 [Example 41, (4aR,6S,7aR)-6-(Methyl(7H-pyrrolo[2,3-d]pyrimidin-4-yl)amino) hexahydro-1H-cyclopenta[c]pyridin-3(2H)-one]	80 nM
CN(c1ncnc2[nH]ccc12)[C@H]1C[C@H]2CNC(=O)C[C@H]2C1 [Example 147, (4aR,6R,7aR)-6-(methyl(7H-pyrrolo[2,3-d]pyrimidin-4-yl)amino)hexahydro-1H-cyclopenta[c]pyridin-3(2H)-one]	1 nM
CN(c1ncnc2[nH]ccc12)[C@H]1C[C@H]2CNC(=O)C[C@H]2C1 [Example 40, (4aR,6R,7aR)-6-(Methyl(7H-pyrrolo[2,3-d]pyrimidin-4-yl)amino) hexahydro-1H-cyclopenta[c]pyridin-3(2H)-one]	98 nM
